Laboratory results from patent US20150315211A1, “SMALL MOLECULES FOR THE MODULATION OF MCL-1 AND METHODS OF MODULATING CELL DEATH, CELL DIVISION, CELL DIFFERENTIATION AND METHODS OF TREATING DISORDERS” (priority 2010, published 2015).

Sequences of proteins named here, by UniProt entry; tags and fusion partners are left off. Residues count along the entry.
UniProt Q07817, 1-212 limits assumed, stated change not applied: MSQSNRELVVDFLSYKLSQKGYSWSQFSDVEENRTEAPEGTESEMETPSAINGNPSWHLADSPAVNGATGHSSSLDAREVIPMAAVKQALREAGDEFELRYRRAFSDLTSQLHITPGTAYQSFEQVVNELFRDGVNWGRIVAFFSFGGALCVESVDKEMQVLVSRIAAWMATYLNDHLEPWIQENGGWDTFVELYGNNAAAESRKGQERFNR
UniProt Q07820, 172-320 limits assumed, stated change not applied: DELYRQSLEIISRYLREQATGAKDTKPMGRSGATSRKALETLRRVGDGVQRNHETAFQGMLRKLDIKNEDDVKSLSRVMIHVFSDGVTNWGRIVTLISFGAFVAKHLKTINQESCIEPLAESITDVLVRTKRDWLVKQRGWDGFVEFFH

Tests used:
BCL-XLΔC = BCL-XLΔC (Homo sapiens, UniProt Q07817); assay: High-throughput competitive FP binding screen, FITC-BAD BH3/BCL-XLΔC interaction
MCL-1ΔNΔC = MCL-1ΔNΔC (Homo sapiens, UniProt Q07820); assay: High-throughput competitive FP binding screen, FITC-MCL-1 SAHB/MCL-1ΔNΔC interaction; parameters: the C-terminal alpha-helix was deleted from each of these constructs; GST (N, cleaved yes); made in house

Row | Structure (SMILES) | BCL-XL % Bound (BCL-XLΔC) | MCL-1% Bound (MCL-1ΔNΔC)
1 | CC1=C(CC/C(C)=C/CCC2C=CC(C3=CC(=O)OC3O)OC2O)C(C)(C)CCC1 (stereo not shown) [drawing 17] | 106.8% | 35.01%
2 | CC1=C(CC/C(C)=C/CCC2C=CC(C3=CC(=O)OC3O)OC2O)C(C)(C)CCC1 (stereo not shown) [drawing 207] | 106.8% | 35.01%
